Experiments:
mesothelin on Hela cells = mesothelin on Hela cells (UniProt Q13421); assay: cell-based or functional assay
[1] = molecular target: CD19 on GFP/Luc+ Raji cells (human) (UniProt P15391); assay: cell-based or functional assay

| Substance | cytotoxicity, real-time cytotoxicity assay (xCELLigence), E:T 3:1, 1:1 and 0.3:1, after 40 hours of co-culture (mesothelin on Hela cells) | Specific cell lysis ratio (at E:T = 3:1), luciferase killing assay [1] |
| --- | --- | --- |
| anti-mesothelin-NKp30 chimeric antigen receptor of Example 2 (SS1 scFv, (G4S)3 hinge, NKp30 without immunoglobulin-like domain), on CAR-T cells of Example 2C (from UniProt O14931 129-201; P30273 19-86) | 100% |  |
| anti-CD19 chimeric antigen receptor of Comparative Example 1 (FMC63 scFv, hinge domain of CD8, transmembrane domain of CD8, 4-1BB, signal transduction domain of CD3ζ), on CAR-T cells of Comparative Example 1C (from UniProt P01732 183-206; Q07011 214-255; P20963 52-164) |  | 60 to 70% |

— patent US20250108114A1
